From US20140336182A1, “Aurora Kinase Modulators and Method of Use” (Amgen Inc., priority 2013, published 2014)

Sequences of proteins named here, by UniProt entry; tags and fusion partners are left off.
UniProt Q96GD4, whole entry: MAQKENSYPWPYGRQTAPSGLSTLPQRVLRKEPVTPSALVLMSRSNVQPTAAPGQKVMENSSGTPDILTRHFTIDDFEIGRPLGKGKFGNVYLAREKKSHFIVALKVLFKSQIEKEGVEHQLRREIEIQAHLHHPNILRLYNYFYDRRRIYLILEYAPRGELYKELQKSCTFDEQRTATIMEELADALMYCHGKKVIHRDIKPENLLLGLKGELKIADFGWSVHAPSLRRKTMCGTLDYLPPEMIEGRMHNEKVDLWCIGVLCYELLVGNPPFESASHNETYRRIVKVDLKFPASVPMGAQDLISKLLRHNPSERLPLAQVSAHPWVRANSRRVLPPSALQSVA

What was measured:
AuroraB = AuroraB (Homo sapiens, UniProt Q96GD4); assay: AuroraB Homogeneous Time Resolved Fluorescent (HTRF) kinase assay; details: read-out: AurB_IC50_IP (uM Avg); average
HeLa cells = assay: HeLa cell 24 hr ploidy assay (DNA content); details: read-out: 24h_4NPloidy EC50_IP (uM Avg), 4N ploidy, average

Structure (SMILES)	IC50 (AuroraB) [µM]	EC50 (HeLa cells) [µM]
COc1cnc2c(Sc3ccc(Nc4nnc(-c5ccc(Cl)cc5)c5ccccc45)cn3)ccnc2c1	0.026	0.011
COc1cnc2c(Sc3ccc(Nc4nnc(N5CCOCC5)c5ccccc45)cc3)ccnc2c1	0.032	0.025
